By UniProt entry, the sequences of proteins in these tests, tags left out.
UniProt Q9UQD0, whole entry: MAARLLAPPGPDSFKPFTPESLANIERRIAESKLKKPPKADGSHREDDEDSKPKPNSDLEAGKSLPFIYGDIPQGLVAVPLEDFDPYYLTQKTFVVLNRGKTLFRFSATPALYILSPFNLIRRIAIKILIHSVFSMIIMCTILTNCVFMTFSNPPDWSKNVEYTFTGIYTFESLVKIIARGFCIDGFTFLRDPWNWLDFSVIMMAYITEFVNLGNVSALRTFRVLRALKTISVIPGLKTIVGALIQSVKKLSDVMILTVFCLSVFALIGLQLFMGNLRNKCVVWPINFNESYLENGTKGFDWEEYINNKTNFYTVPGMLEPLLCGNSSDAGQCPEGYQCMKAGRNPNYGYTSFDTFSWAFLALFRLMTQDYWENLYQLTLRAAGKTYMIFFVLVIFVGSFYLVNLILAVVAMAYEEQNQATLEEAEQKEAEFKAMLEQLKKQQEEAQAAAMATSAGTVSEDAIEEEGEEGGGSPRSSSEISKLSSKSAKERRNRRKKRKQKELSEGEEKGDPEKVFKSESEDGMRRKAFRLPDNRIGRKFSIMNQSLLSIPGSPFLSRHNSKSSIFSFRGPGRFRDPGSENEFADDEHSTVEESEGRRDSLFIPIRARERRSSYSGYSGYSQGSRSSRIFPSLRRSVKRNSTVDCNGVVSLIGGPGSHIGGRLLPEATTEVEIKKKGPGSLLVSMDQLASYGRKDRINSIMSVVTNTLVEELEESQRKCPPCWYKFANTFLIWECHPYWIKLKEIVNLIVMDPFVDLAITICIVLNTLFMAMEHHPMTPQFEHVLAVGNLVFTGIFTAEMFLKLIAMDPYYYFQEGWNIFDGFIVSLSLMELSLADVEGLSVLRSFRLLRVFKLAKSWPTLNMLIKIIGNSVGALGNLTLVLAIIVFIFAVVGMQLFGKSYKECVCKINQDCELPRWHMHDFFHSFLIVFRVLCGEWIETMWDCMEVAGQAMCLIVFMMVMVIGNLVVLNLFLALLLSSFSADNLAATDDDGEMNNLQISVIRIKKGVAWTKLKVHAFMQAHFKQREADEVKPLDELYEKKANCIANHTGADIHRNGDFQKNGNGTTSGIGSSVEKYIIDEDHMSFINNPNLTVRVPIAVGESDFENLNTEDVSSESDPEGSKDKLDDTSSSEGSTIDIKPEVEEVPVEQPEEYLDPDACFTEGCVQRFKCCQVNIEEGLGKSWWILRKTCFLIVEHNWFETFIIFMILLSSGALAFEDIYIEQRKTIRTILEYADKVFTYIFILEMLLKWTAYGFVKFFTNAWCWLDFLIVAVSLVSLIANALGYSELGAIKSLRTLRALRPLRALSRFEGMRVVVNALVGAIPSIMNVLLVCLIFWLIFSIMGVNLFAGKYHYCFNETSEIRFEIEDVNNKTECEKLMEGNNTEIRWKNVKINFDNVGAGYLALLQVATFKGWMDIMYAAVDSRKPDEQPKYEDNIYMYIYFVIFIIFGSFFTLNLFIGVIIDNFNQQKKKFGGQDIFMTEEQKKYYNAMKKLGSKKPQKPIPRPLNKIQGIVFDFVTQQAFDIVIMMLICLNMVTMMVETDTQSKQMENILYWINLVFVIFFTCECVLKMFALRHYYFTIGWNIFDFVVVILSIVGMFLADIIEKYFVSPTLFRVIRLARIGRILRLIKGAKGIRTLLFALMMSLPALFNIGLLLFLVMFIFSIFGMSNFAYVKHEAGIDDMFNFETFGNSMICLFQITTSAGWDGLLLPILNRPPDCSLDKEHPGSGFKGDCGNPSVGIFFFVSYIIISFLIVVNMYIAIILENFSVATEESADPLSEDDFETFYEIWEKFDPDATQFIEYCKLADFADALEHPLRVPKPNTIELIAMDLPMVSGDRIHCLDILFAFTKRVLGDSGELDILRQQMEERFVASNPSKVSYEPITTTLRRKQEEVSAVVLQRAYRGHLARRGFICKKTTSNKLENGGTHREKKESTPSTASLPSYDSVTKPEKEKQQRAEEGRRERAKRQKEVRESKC

In paper PMC9304232 (Epilepsia, 2022):

Assays:
hNaV1.6 [1] = biological target: T1, hNaV1.6 (Homo sapiens, UniProt Q9UQD0); assay: Peak INa tonic block; type: cell-based; conditions: TB IC50 / persistent INa IC50
hNaV1.6 [2] = biological target: T1, hNaV1.6; assay: Peak INa use‐dependent block; type: cell-based
[3] = system: hippocampal CA1 pyramidal neurons; assay: Evoked action potential firing; type: cell-based; conditions: wild‐type mouse CA1 neurons
hNaV1.6 [4] = biological target: T1, hNaV1.6; assay: Peak INa voltage‐dependent block; conditions: VDB IC50 / persistent INa IC50

## NC(=O)N1c2ccccc2C=Cc2ccccc21 [Carbamazepine, carbamazepine]
hNaV1.6 [1]
  Ratio to persistent INa (peak INa TB): 30
hNaV1.6 [2]; UDB IC50 / persistent INa IC50
  Ratio to persistent INa (peak INa UDB): 18
hNaV1.6 [2]; preference of use‐dependent block over tonic block
  Ratio to peak INa TB (peak INa UDB): 1.6
[3]; 45 µmol·L^–1
  Neuronal excitability, number of evoked APs: more robust reduction
[3]; 45 µmol·L^–1, +200 pA
  AP amplitude: more pronounced reduction
hNaV1.6 [4]
  Ratio to persistent INa (peak INa VDB): .6
